Measured values from patent US20260137691A1 (priority 2024, published 2026).

Amino acid sequences for entries named in this document (tags omitted).
UniProt P21452, whole entry: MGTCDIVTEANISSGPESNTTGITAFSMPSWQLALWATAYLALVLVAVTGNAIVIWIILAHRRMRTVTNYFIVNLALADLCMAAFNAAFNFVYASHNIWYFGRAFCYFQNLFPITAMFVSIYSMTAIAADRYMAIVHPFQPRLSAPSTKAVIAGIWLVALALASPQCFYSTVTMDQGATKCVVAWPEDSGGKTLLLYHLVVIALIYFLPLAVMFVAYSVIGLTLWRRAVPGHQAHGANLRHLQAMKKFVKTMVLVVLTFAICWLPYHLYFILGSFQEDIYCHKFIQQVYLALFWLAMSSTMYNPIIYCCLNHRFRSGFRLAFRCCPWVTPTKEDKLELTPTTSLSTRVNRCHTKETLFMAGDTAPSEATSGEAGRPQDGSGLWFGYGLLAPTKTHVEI

Target: T1, NK2 (h) (Homo sapiens, UniProt P21452)
T1 construct: Eurofins (contract assay)
Test: NK2 (h) (agonist radioligand)
Type: binding

`CCCC[C@H](NC(=O)[C@H](CC(C)C)NC(=O)CNC(=O)[C@@H](NC(=O)[C@H](Cc1ccccc1)NC(=O)[C@H](CO)NC(=O)[C@@H](N)CC(=O)O)C(C)C)C(N)=O` [[Nleu10]-NKA (4-10)] showed an IC50 of 3.5 nM.
